Counter-ions that a name gives are not always drawn.
Target: S. aureus CrtM (dehydrosqualene synthase) (Staphylococcus aureus, UniProt A9JQL9)
Experiment: CrtM enzyme inhibition assay
Conditions: read-out: CrtM enzyme experimental activity IC50; Table 5

The chains behind the UniProt entries cited, without tags or fusion partners. Where a name states a change or a piece, a line headed by the entry shows the natural chain unless it says otherwise.
UniProt A9JQL9: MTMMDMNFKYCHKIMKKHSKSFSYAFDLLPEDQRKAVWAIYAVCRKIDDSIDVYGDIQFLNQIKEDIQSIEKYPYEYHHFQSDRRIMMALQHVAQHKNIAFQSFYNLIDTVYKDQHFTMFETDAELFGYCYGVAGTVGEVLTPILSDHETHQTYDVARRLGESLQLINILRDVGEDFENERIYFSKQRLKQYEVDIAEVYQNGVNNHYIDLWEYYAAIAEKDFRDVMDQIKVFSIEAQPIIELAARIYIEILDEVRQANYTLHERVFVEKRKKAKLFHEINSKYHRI

## CCn1c2ccccc2c2cc(CCCC(P(=O)(O)O)S(=O)(=O)O)ccc21 (stereo not shown) [Compound 19, 1-Phosphono-4-(9-ethylcarbazole-3-yl)butylsulfonic acid tripotassium salt]
  IC50: 170 µM

Reference: patent publication US20120022024A1, “ANTI-BACTERIAL COMPOSITIONS AND METHODS INCLUDING TARGETING VIRULENCE FACTORS OF STAPHYLOCOCCUS AUREUS” (priority 2009, published 2012)
